Measured values reported in patent US20030157084A1, “Methods for preparing purified prostaglandin E synthase” (priority 2001, published 2003).

Format: physicochemical
Procedure: Membrane fractions were solubilized in 50 mM sodium phosphate buffer, pH 8.0, 150 mM NaCl, 4% Triton X-100, 10% glycerol and 1 mM GSH and stored at 4° C. Samples were assayed for PGES activity as described above after 0, 3, 6, 24 and 240 h (10 days) at 4° C.
The activity of the purified His6-hPGES was assayed on a sample of protein. The remaining protein was divided in two parts, one was stored at 4° C. for 5 days, and one was frozen and stored at −20° C. for the same time. The PGES activity in the three samples was compared with that in a membrane fraction without solubilization. PGES activity was determined, as described above, for various amounts of protein. The samples were incubated for 1 min on ice or at 37° C. before stopping the reaction. The activity of the purified proteins was compared with the activity in BL21(DE3) membrane fraction without solubilization.

B1: His6-hPGES: full length human PGES fused at its N-terminus to six histidine residues (SEQ ID NO: 4), expressed in E. coli (protein)
chain: MHHHHHHMPAHSLVMSSPALPAFLLCSTLLVIKMYVVAIITGQVRLRKKAFANPEDALRHGGPQYCRSDPDVERCLRAHRNDMETIYPFLFLGFVYSFLGPNPFVAWMHFLVFLVGRVAHTVAYLGKLRAPIRSVTYTLAQLPCASMALQILWEAARHL
Q: For B1, which “PGES activity after solubilization or freeze-thawing” value is on record?
A: The value was “does not appear to be affected by solubilization or freeze-thawing”.
